Source: article PMC11374718, “Unlocking opioid neuropeptide dynamics with genetically encoded biosensors” (Nature Neuroscience, 2024)

Protein sequences, listed by entry. Tags and fused reporters are not part of them. Lines headed by an entry give the natural chain unless they say otherwise; changes in a name come on top.
UniProt P35372, whole entry V175Q, looked up: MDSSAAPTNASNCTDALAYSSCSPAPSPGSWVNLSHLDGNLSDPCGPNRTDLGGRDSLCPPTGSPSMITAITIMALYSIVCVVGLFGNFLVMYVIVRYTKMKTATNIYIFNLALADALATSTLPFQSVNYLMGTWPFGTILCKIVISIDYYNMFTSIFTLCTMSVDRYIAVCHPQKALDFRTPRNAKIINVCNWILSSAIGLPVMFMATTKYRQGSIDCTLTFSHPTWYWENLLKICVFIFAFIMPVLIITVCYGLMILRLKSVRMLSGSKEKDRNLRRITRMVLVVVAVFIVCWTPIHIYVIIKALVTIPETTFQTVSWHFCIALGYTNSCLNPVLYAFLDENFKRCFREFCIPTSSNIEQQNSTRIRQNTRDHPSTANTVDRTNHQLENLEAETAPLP
UniProt P41145: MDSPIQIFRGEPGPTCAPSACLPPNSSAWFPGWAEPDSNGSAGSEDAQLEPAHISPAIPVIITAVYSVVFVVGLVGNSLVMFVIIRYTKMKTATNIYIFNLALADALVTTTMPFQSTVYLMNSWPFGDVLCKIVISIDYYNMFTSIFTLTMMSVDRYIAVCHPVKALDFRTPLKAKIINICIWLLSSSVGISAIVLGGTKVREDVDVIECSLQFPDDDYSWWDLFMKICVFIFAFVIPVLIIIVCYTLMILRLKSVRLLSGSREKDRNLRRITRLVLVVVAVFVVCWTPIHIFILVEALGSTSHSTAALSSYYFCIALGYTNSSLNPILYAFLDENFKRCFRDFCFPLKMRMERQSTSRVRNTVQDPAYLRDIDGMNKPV

Assays:
µLight [1] = target: µLight (Homo sapiens, UniProt P35372, V175Q); assay type: binding
µLight [2] = target: µLight (Homo sapiens, UniProt P35372, INS270[…]/V175Q); assay type: cell-based
κLight = target: T1, κLight (Homo sapiens, UniProt P41145, INS261[…]/L259S/S262L/V164K); assay: [3H]diprenorphine displacement binding, κLight cell membranes; conditions: read-out: κLight IC50
T1 construct: TlcnC (telencephalin) tag (C); PRC tag (C); ER2 (ER export motif FCYENEV) tag (C); expressed in transfected cells; dissociated hippocampal neurons (AAV9-hSyn); mouse brain (AAV9-hSyn)

| SMILES | μLight % bound at 10 μM (µLight [1]) [%] | μLight ΔF/F max (%) (µLight [2]) | IC50 (κLight) [nM] | IC50 (µLight [1]; read-out: μLight IC50) [nM] | EC50 (µLight [2]; read-out: μLight EC50) [µM] |
| --- | --- | --- | --- | --- | --- |
| CC[C@H](C)[C@H](NC(=O)[C@H](CCCN=C(N)N)NC(=O)[C@H](CCCNC(=N)N)NC(=O)[C@H](CC(C)C)NC(=O)[C@H](Cc1ccccc1)NC(=O)CNC(=O)CNC(=O)[C@@H](N)Cc1ccc(O)cc1)C(=O)N[C@@H](CCCN=C(N)N)C(=O)N1CCC[C@H]1C(=O)N[C@@H](CCCCN)C(=O)N[C@@H](CC(C)C)C(=O)N[C@@H](CCCCN)C(=O)N[C@@H](Cc1c[nH]c2ccccc12)C(=O)N[C@@H](CC(=O)O)C(=O)N[C@@H](CC(N)=O)C(=O)N[C@@H](CCC(N)=O)C(=O)O [DynA17, dynorphin A (1-17)] | 60±2 | – | – | – | – |
| CSCC[C@H](NC(=O)[C@H](Cc1ccccc1)NC(=O)CNC(=O)CNC(=O)[C@@H](N)Cc1ccc(O)cc1)C(=O)O [ME, met-enkephalin] | 77±3 | 40.0±1.55 | – | – | – |
| CC(C)C[C@H](NC(=O)[C@H](Cc1ccccc1)NC(=O)CNC(=O)CNC(=O)[C@@H](N)Cc1ccc(O)cc1)C(=O)N[C@@H](CCCNC(=N)N)C(=O)N[C@@H](CCCNC(=N)N)C(=O)N[C@@H](CCC(N)=O)C(=O)N[C@@H](Cc1ccccc1)C(=O)N[C@@H](CCCCN)C(=O)N[C@H](C(=O)N[C@H](C(=O)N[C@H](C(=O)O)[C@@H](C)O)C(C)C)C(C)C [DynB13] | 61±2 | – | 6 ± 2 | 10 ± 2 | – |
| CC[C@H](C)[C@H](NC(=O)[C@H](CCCNC(=N)N)NC(=O)[C@H](CCCNC(=N)N)NC(=O)[C@H](CC(C)C)NC(=O)[C@H](Cc1ccccc1)NC(=O)CNC(=O)CNC(=O)[C@@H](N)Cc1ccc(O)cc1)C(=O)N[C@@H](CCCNC(=N)N)C(=O)N1CCC[C@H]1C(=O)N[C@@H](CCCCN)C(=O)N[C@@H](CC(C)C)C(=O)N[C@@H](CCCCN)C(=O)O [DynA13, dynorphin A1-13] | – | – | – | – | 3.74 |
